Here are results for 6 compounds from patent US20070059799A1 (priority 1999, published 2007).

By UniProt entry, the sequences of proteins in these tests, tags left out. Where a name states a change or a piece, a line headed by the entry shows the natural chain unless it says otherwise.
UniProt P01889: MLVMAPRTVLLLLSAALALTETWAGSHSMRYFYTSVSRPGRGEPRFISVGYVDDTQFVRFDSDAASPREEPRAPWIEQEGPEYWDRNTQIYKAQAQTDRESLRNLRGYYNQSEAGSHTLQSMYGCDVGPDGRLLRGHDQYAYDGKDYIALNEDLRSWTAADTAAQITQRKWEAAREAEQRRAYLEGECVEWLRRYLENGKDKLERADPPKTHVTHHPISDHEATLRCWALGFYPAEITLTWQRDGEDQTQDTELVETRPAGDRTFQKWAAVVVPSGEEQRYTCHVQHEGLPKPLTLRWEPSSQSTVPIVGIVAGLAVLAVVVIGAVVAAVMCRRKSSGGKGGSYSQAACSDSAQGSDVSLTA

Assay [1] addresses A*0301 (Homo sapiens, UniProt P04439). The experiment in a line: Purified HLA class I peptide binding assay (HLA-A*03).
Assay [2] has as its target B*5401 (Homo sapiens, UniProt P01889, A329T/C349S/D138N/D201E/E176V/E187T/E204Q/E69G/I76V/K202T/L119W/R155S/R180L/S121T/S35A/S48A/V127L/V306I/V36M/Y140L). The experiment in a line: biochemical. Format: binding.
Assay [3] has as its target A*6801 (Homo sapiens, UniProt P04439, A269V/D185E/E176V/E277Q/E87N/F33Y/G231S/I121M/I166T/I218V/L180W/L300P/L318F/N151K/P208A/P217A/Q86R/R169H/T345S). The experiment in a line: Purified HLA class I peptide binding assay.
The target in assay [4] is A*0101 (Homo sapiens, UniProt P04439, A114D/A174V/A182V/D101N/D185E/E176A/E190D/L180R/Q94H/R68K/S129P/T187R/V100A/V91M/W191G). Nature of the assay: biochemical.

Regarding `CC(C)C[C@H](NC(=O)[C@@H](NC(=O)[C@@H](NC(=O)[C@H](CO)NC(=O)[C@H](CC(N)=O)NC(=O)[C@H](CC(=O)O)NC(=O)[C@@H](NC(=O)CN)[C@@H](C)O)C(C)C)C(C)C)C(=O)N[C@@H](CO)C(=O)N[C@@H](CCCNC(=N)N)C(=O)N[C@@H](CCCCN)C(=O)O` [Peptide 1147.17], the IC50 (in general, the midpoint of a concentration-inhibition curve) in assay [1] came out at 786 nM.

For the compound `CC(C)C[C@H](NC(=O)[C@H](CCC(N)=O)NC(=O)[C@H](Cc1c[nH]cn1)NC(=O)[C@H](CC(=O)O)NC(=O)[C@@H]1CCCN1C(=O)[C@@H](N)Cc1ccccc1)C(=O)N[C@@H](CC(=O)O)C(=O)N1CCC[C@H]1C(=O)N[C@@H](C)C(=O)O` [Peptide 16.0006], it took 12 nM to reach half-maximal inhibition in assay [2] (IC50). `CC[C@H](C)[C@H](NC(=O)[C@@H]1CCCN1C(=O)[C@@H](N)CC(C)C)C(=O)N[C@@H](Cc1c[nH]cn1)C(=O)N[C@H](C(=O)N[C@@H](C)C(=O)N[C@@H](CCC(=O)O)C(=O)N[C@@H](CC(C)C)C(=O)N[C@@H](CC(C)C)C(=O)N[C@@H](C)C(=O)O)[C@@H](C)O` [Peptide 16.0181] returned an IC50 in assay [2] of 30 nM. `CC(C)C[C@H](NC(=O)[C@H](CC(=O)O)NC(=O)[C@@H](NC(=O)[C@@H](N)[C@@H](C)O)[C@@H](C)O)C(=O)N[C@@H](CCC(=O)O)C(=O)N[C@@H](C)C(=O)N[C@@H](Cc1ccc(O)cc1)C(=O)N[C@@H](Cc1ccccc1)C(=O)N[C@@H](CCCCN)C(=O)O` [Peptide 1.0215.] showed an IC50 in assay [3] of 471 nM. Compound `CSCC[C@H](NC(=O)[C@@H](N)Cc1ccc(O)cc1)C(=O)N[C@@H](CC(=O)O)C(=O)N[C@@H](CC(=O)O)C(=O)N[C@H](C(=O)N[C@H](C(=O)N[C@@H](CC(C)C)C(=O)NCC(=O)N[C@@H](C)C(=O)O)C(C)C)C(C)C` [peptide 1090.14] came in with an IC50 in assay [4] of 96 nM. The compound `CC(C)C[C@H](NC(=O)[C@H](Cc1ccccc1)NC(=O)[C@@H](NC(=O)CNC(=O)CNC(=O)[C@@H](NC(=O)[C@@H](NC(=O)[C@H](CCCNC(=N)N)NC(=O)[C@H](C)NC(=O)[C@@H]1CCCN1C(=O)[C@@H](N)[C@@H](C)O)C(C)C)[C@@H](C)O)C(C)C)C(=O)O` [Peptide 26.0568] displayed an IC50 in assay [2] of 20000 nM.
